Measurements as given in PubChem BioAssay (NCI).
The list shows a part of the results, in another mix than the full data. Activity calls are given as the source filed them. No stated cut-off is given here; in the data, active means growth inhibition above about 70%; inactive means the rest.

Assay: NCI Yeast Anticancer Drug Screen. Data for the rad50 strain (AID 155);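 further: 0% = growth of vehicle-only cultures of the same strain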
Settings: S. cerevisiae rad50 strain growth inhibition; at 50.0 µM; stronger effect = higher value

Compound	growth inhibition
c1ccc(CN2CCC(Nc3ccccc3)CC2)cc1	inactive: 44%
CC(Cl)CN(CC(C)Cl)c1ccc2ccccc2c1 (stereo unspecified)	inactive: -1.75%
Cc1cc(C)c2nc(CN(CCCl)CCCl)[nH]c2c1	inactive: -0.05%
Cc1ccc(NC2(C(N)=O)CCNCC2)cc1	inactive: 15%
Cc1ccc(N(CCBr)CCBr)cc1	inactive: -0.55%
COc1ccccc1N(CCCl)CCCl	inactive: 10.8%
O=C(O)CCOc1ccccc1N(CCCl)CCCl	inactive: -18.4%
O=C1CCNCC1	inactive: -6.6%
Nc1c(Cl)cc(CN(CCCl)CCCl)cc1Cl	inactive: 3.8%
CC(C)NP(=O)(F)NC(C)C	inactive: -6.9%
Nc1cc([As](Cl)Cl)ccc1O	inactive: 42.8%
O=C(O)CN(CCCl)CCCl	inactive: 1.65%
Fc1cccc(CBr)c1	inactive: -1.05%
ClCCSC(SCCCl)=C(SCCCl)SCCCl	inactive: 17.1%
Cc1cc(N(CCCl)CCCl)ccc1C=C(C#N)C#N	inactive: -24.9%
Cc1ccc(NC2(C#N)CCN(Cc3ccccc3)CC2)cc1	inactive: -27.2%
CCOc1ccc(N(CCCl)CCCl)cc1	inactive: -1.3%
COc1cccc(N(CCCl)CCCl)c1	inactive: 44.4%
O=P(Cl)(Cl)N(CCF)CCCl	inactive: -8.5%

Compound	growth inhibition
O=C1NC(=NC2CCCCC2)C2(CCN(CCc3ccccc3)CC2)N1c1ccccc1	inactive: 9.4%
COC(=O)c1ccc(C)c(N(CCCl)CCCl)c1	inactive: -27.1%
CCC1C(OC(=O)CC(O)(c2ccccc2)c2ccccc2)C2CCN1CC2 (stereo unspecified)	inactive: 17.1%
CN(CCCl)CC(Cl)c1cccc(C(F)(F)F)c1 (stereo unspecified)	inactive: -20%
O=c1[nH]c2ccccc2n1C1CCN(Cc2ccccc2)CC1	inactive: -7.3%
Nc1cc([As](I)I)ccc1O	inactive: 44.6%
O=NN(CCSCCCl)C(=O)NC1CCCCC1	inactive: 12.2%
CCC(=O)N(c1ccccc1)C1CCNCC1	inactive: -27.5%
COc1ccc([N+](=O)[O-])cc1CN(CCBr)CCBr	inactive: 6.85%
O=C1CCN(CCc2ccccc2)CC1	inactive: -1.2%
O=C(O)C1(Nc2ccccc2)CCN(Cc2ccccc2)CC1	inactive: 16.4%
CCCCCCCCC(=O)OCC(COP(=O)(Oc1ccccc1)N(CCCl)CCCl)OC(=O)CCCCCCCC (stereo unspecified)	inactive: 4.75%
NS(=O)(=O)c1ccc(N(CCCl)CCCl)cc1	inactive: 13.8%
Cn1c(S(C)=O)cnc1COC(=O)N(CCCl)CCCl (stereo unspecified)	inactive: -6.7%
CC1(C)OCC(COP(N)(=O)N(CCCl)CCCl)O1 (stereo unspecified)	active: 95.7%
O=C(OC1CN2CCC1CC2)C1(c2ccccc2)COc2ccccc21 (stereo unspecified)	inactive: 11.1%
CCCOP(O)OCCC	inactive: 6.6%
Cc1ccc(N(CCCl)CCCl)cc1	inactive: -0.15%
ClCCN(CCCl)c1ccccc1	inactive: 17.1%

Assay: NCI Yeast Anticancer Drug Screen. Data for the mec2-1 strain (AID 157)
Settings: S. cerevisiae mec2-1 strain, at 50.0 µM, stronger effect = higher value

Compound	growth inhibition
c1ccc(CN2CCC(Nc3ccccc3)CC2)cc1	inactive: 36.5%
CC(Cl)CN(CC(C)Cl)c1ccc2ccccc2c1 (stereo unspecified)	inactive: -3.35%
Cc1cc(C)c2nc(CN(CCCl)CCCl)[nH]c2c1	inactive: 4.55%
Cc1ccc(NC2(C(N)=O)CCNCC2)cc1	inactive: -43.2%
Cc1ccc(N(CCBr)CCBr)cc1	inactive: -9.2%
COc1ccccc1N(CCCl)CCCl	inactive: -6.4%
O=C(O)CCOc1ccccc1N(CCCl)CCCl	inactive: -7.15%
O=C1CCNCC1	inactive: -8%
Nc1c(Cl)cc(CN(CCCl)CCCl)cc1Cl	inactive: -14.6%
CC(C)NP(=O)(F)NC(C)C	inactive: 0.8%
Nc1cc([As](Cl)Cl)ccc1O	inactive: 16.4%
O=C(O)CN(CCCl)CCCl	inactive: 7.3%
Fc1cccc(CBr)c1	inactive: -9.8%
ClCCSC(SCCCl)=C(SCCCl)SCCCl	inactive: 18.6%
Cc1cc(N(CCCl)CCCl)ccc1C=C(C#N)C#N	inactive: -12.9%
Cc1ccc(NC2(C#N)CCN(Cc3ccccc3)CC2)cc1	inactive: -22.6%
CCOc1ccc(N(CCCl)CCCl)cc1	inactive: 10.2%
COc1cccc(N(CCCl)CCCl)c1	inactive: 12.7%
O=P(Cl)(Cl)N(CCF)CCCl	inactive: -9.9%

Compound	growth inhibition
O=C1NC(=NC2CCCCC2)C2(CCN(CCc3ccccc3)CC2)N1c1ccccc1	inactive: -4.5%
COC(=O)c1ccc(C)c(N(CCCl)CCCl)c1	inactive: -1.1%
CCC1C(OC(=O)CC(O)(c2ccccc2)c2ccccc2)C2CCN1CC2 (stereo unspecified)	inactive: 5.35%
CN(CCCl)CC(Cl)c1cccc(C(F)(F)F)c1 (stereo unspecified)	inactive: 0.75%
O=c1[nH]c2ccccc2n1C1CCN(Cc2ccccc2)CC1	inactive: -30.2%
Nc1cc([As](I)I)ccc1O	inactive: 43.9%
O=NN(CCSCCCl)C(=O)NC1CCCCC1	inactive: -10.8%
CCC(=O)N(c1ccccc1)C1CCNCC1	inactive: -44%
COc1ccc([N+](=O)[O-])cc1CN(CCBr)CCBr	inactive: 4.1%
O=C1CCN(CCc2ccccc2)CC1	inactive: -32.6%
O=C(O)C1(Nc2ccccc2)CCN(Cc2ccccc2)CC1	inactive: -19.6%
CCCCCCCCC(=O)OCC(COP(=O)(Oc1ccccc1)N(CCCl)CCCl)OC(=O)CCCCCCCC (stereo unspecified)	inactive: -0.45%
NS(=O)(=O)c1ccc(N(CCCl)CCCl)cc1	inactive: 8.75%
Cn1c(S(C)=O)cnc1COC(=O)N(CCCl)CCCl (stereo unspecified)	inactive: -27.4%
CC1(C)OCC(COP(N)(=O)N(CCCl)CCCl)O1 (stereo unspecified)	active: 87.7%
O=C(OC1CN2CCC1CC2)C1(c2ccccc2)COc2ccccc21 (stereo unspecified)	inactive: -8.6%
CCCOP(O)OCCC	inactive: 2.85%
Cc1ccc(N(CCCl)CCCl)cc1	inactive: -10.2%
ClCCN(CCCl)c1ccccc1	inactive: -2.1%
